{"source": "patent US5413915A", "about": "(priority 1991, dated 1995)", "key": {"[1]": {"conditions": "1979 Registry and 1983-84 Supplement of NIOSH RTECS; cited from earlier work"}, "[2]": {"conditions": "discernible color within 24 hours, leuco-PRA detection element"}}, "note": "Where two headings read alike, the source gives them in different places.", "data": [{"molecule": "BHA", "values": [{"measurement": "Detector Response, threshold dose", "setting": "rat liver microsomes; [2]", "result": 0.3, "unit": "micromols"}]}, {"molecule": "NH2 OH", "values": [{"measurement": "Detector Response, threshold dose", "setting": "rat liver microsomes; [2]", "result": 0.1, "unit": "micromols"}]}, {"molecule": "Ni(II)", "values": [{"measurement": "Detector Response, threshold dose", "setting": "rat liver microsomes; [2]", "result": "< 1", "unit": "micromols"}]}, {"molecule": "AgNO3", "values": [{"measurement": "Detector Response, threshold dose", "setting": "rat liver microsomes; [2]", "result": "< 5", "unit": "micromols"}]}, {"molecule": "CCOP(=S)(CC)Sc1ccccc1", "note": "(stereo not shown)", "values": [{"measurement": "Detector Response, threshold dose", "setting": "rat liver microsomes; superscript a: first of two rat sources for microsomal material", "result": "10-100 micromols"}]}, {"molecule": "CN(N=O)C(=N)N[N+](=O)[O-]", "values": [{"measurement": "Carcinogenic Status", "setting": "[1]", "result": "Positive"}]}, {"molecule": "NNc1ccc([N+](=O)[O-])cc1[N+](=O)[O-]", "values": [{"measurement": "Detector Response, threshold dose", "setting": "rat liver microsomes; [2]", "result": 0.01, "unit": "micromols"}]}]}
